## scFv variants of Ab-14 (light chain) against a SARS-CoV-2 spike peptide

Binding partner: SARS-CoV-2 spike HR2 peptide, sequence PDVDLGDISGINAS.

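The parent was found by panning a naive human phage display library on the peptide. The variants were designed computationally from a first round of random CDR variants and then made and measured. Several design methods are mixed in this list. AlphaSeq pools MATa yeast showing the antibodies with MATalpha yeast showing the peptide. Binding brings cells together so that they mate, and sequencing counts the barcode pairs among the diploids. Each replicate has its own calibration line, from reference interactions of the BCL2 family. The assay was run in six technical replicates.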

The variants keep the heavy chain, the linker and the frameworks of Ab-14 (scFv order VH, the linker GGGGSGGGGSGGGGS, VL).
VH: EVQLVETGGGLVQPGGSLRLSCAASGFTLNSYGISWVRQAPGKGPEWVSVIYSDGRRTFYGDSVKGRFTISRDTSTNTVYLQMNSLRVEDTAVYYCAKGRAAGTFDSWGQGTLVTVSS
VL: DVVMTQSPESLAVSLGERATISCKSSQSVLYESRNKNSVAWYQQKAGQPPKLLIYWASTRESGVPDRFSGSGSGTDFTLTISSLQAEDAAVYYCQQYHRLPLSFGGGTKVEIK

Each variant is given by its three light chain CDRs, as the data file delimits them; those of the parent are KSSQSVLYESRNKNSVA, WASTRES, QQYHRLPLS.
Variants here have at most six changes.
Kd is apparent (estimated from mating counts) and averaged on the log scale over replicates with a signal. Smaller is tighter.
A pair that was not seen in any replicate is written "no signal"; this usually means weak binding, but a binder can also be missed.
The parent sequence was in this pool as ten entries: three were never detected, three once, and four in most replicates, with averages from 2.2 nM to 240 nM.

CDR-L1	CDR-L2	CDR-L3	Kd (apparent)	seen in
KLSQSELYESRNKNNVA	EASQRES	QQYHRLPLS	440 pM	6/6
KSSQSWSYESRNKNSVA	WASTRED	QQYHRLPLS	67 nM	4/6
KCSQSVLYESRNKNSVA	DASTRES	QQYQRLPLS	360 pM	6/6
KLSQSVLYQSRNKNSVA	GASTRES	QQYHRLPLS	660 pM	6/6
KSSQSVLYESVNKNSVA	YASTRED	QQGHRLPLS	110 nM	5/6
KLSDSVEYESRNKNSVA	WASERES	QQYHRLPLS	no signal	0/6
KLLQSQLYESRNKNSVA	NASTRES	QQYHRLPLS	580 pM	6/6
FLSQSVLYESRNKNSVA	NASTRLS	QQYHRLPLS	1.2 nM	6/6
KSSQSVLYESRGKNSVA	WASTRED	QQYHRLPLS	31 nM	6/6
KFQQSVLYESRNKNSVA	DASQRES	QQYHRLPLS	480 pM	6/6
KHSQSVLYEDRVKNSVA	DASQRES	QQYHRLPLS	1.1 nM	6/6
KLSQSVLYESRNKNSVA	NASTRFS	QQYHRLPLS	1.5 nM	6/6
KLSQSVEYQSRNKNAVA	SAQTRES	QQYHRLPLS	510 pM	6/6
KLSQSDLYESRAKNSVA	EASTRES	QQYHRLPLS	1.1 nM	6/6
KSSQSVLGEDRNKNSVA	DISTRES	QQYHRLPLS	1.4 nM	6/6
KESQSVLYESRNKNSVA	SASTRES	QQYNRLPLS	5.7 nM	6/6
KLSQSWLYESRNSMSVA	DASTRLS	QQYHRLPLS	530 pM	6/6
KVDQSVLYKSRNKNAVA	QASTRES	QDYHRLPLS	2.0 nM	6/6
KSSQSWLYESRNFWSVA	AASTRES	QQYHRLPLS	140 nM	5/6
KLEQSELYESRNKNSVA	NASTRES	QQYHRLPLS	2.0 nM	6/6
KLPQSVLYESRNKNSVA	NASTRSS	QQYHRLPLS	1.6 nM	6/6
KLRQSTLYESRNKNEVA	EASTRES	QQYHRLPLS	14 nM	6/6
KAVQSELYESRNKNSVA	GASTRES	QQYHRLPLI	2.4 nM	6/6
ALSQSWLYESRNKNSVA	NASTRES	QQYHRLPLS	21 nM	4/6
KYSQSVLYESRNKNSVA	DASTRES	QQYHRLPLD	2.2 nM	6/6
KLRQSTLYESRNPNSVA	WASQRES	QQYHRLPLS	2.5 nM	6/6
KSSQSVLYESGNKNSVA	KASTRES	QQYAWLPLS	98 nM	6/6
KLPQSVLYEDRNKNSVA	NASQRES	QQYHRLPLS	360 pM	6/6
KSSQSVLMESRNKNSVA	WASTRES	QQYHRLPLS	160 nM	4/6
KVSQSFLYESRNKNSVA	EASTRES	QQYHRLPLS	560 pM	6/6
KLDQSVLYESRNKNSVA	NASTREQ	QQYHRLPLS	560 pM	6/6
KFSQSGLYESRNTNSVA	WASTRTS	QQYHRLPLS	13 nM	6/6
KVQQSVLYESRNKNSVA	DASTRES	QQYHRLPLS	900 pM	6/6
KLPFSTLYESRQKNSVA	NASTRES	QQYHRLPLS	2.0 nM	6/6
KLSQSHLYESRNWNSVA	NASTRES	QQYHRLPLS	3.0 nM	6/6
KQSQSVLYESRDKNSVA	NASTREE	QQYHRLPLS	910 pM	6/6
KLEQSHLYESRNKNAVA	NASTRES	QQYHRLPLS	530 pM	6/6
KFSQSVPYESRNKNSVA	NASTRES	QQYHRLPLS	320 pM	6/6
KSSQSVLDESRNTNSVA	WASTRES	QQYHRLPLS	16 nM	6/6
KLSQSVLYGSRNKNSVA	EASTRES	QQYHRLPLS	420 pM	6/6
KCQQSVLYESRNKNNVA	AASTRED	QQYHRLPLS	480 pM	6/6
KSSQSVLTESRNKNSVN	QASTRES	QQYHRLPLS	940 nM	1/6
KSSQSWLYESRNKNNVA	GASTREN	QQYHRLPLS	560 pM	6/6
KLSQSHLYESRMKNAVA	NASTRES	QQYHRLPLS	510 pM	6/6
KSSESWLYESRNKNSVA	HASTREQ	QQYHRLPLS	600 pM	6/6
KLSMSQLYESRNKNSVA	NASTRLS	QQYHRLPLS	1.7 nM	6/6
KLSQSTLYESRNKNAVA	NASQRES	QQYHRLPLS	2.0 nM	6/6
KSSQSVLYEWRNKNSVA	QASTREV	QQYHRLPLS	520 nM	3/6
KSSISDLYESRNKNSVA	AASTRES	QQYHRLPLS	1.3 nM	6/6
KLSQSHLYESRNKNSVA	GASTRES	QQYHRLPLS	1.2 nM	6/6
KSSQTVLYESRNKNSVA	WASTRES	QQQHRLPLS	no signal	0/6
KSSQSVLYESRNQNSVA	WASTRES	QQYHRLPLS	210 nM	6/6
KCSQSVLYESRNKNSVA	EASTRES	QQYHRLPLS	800 pM	6/6
KLSYSVPGESRNKNSVA	DAGTRES	QQYHRLPLS	520 pM	6/6
KSSQSDLYESRNKNSVA	GASTRES	QQYHRLTLS	770 pM	6/6
KSSQSVLYESKNKNSVA	KAHTRMS	QQCHRLPLS	1.6 µM	5/6
KLQQSELYESRNKNSVA	GASTRLS	QQYHRLPLS	380 pM	6/6
KSSQSWLFESLNKNNVA	WGSTRES	QQYHRLPLG	7.3 nM	5/6
KSEQSVLYESLNKNSVA	DAQTRES	QEYHRLPLS	2.4 nM	6/6

The 8 strongest on average among those seen in every replicate, once more:

CDR-L1,CDR-L2,CDR-L3,Kd (apparent),seen in
KFSQSVPYESRNKNSVA,NASTRES,QQYHRLPLS,320 pM,6/6
KCSQSVLYESRNKNSVA,DASTRES,QQYQRLPLS,360 pM,6/6
KLPQSVLYEDRNKNSVA,NASQRES,QQYHRLPLS,360 pM,6/6
KLQQSELYESRNKNSVA,GASTRLS,QQYHRLPLS,380 pM,6/6
KLSQSVLYGSRNKNSVA,EASTRES,QQYHRLPLS,420 pM,6/6
KLSQSELYESRNKNNVA,EASQRES,QQYHRLPLS,440 pM,6/6
KCQQSVLYESRNKNNVA,AASTRED,QQYHRLPLS,480 pM,6/6
KFQQSVLYESRNKNSVA,DASQRES,QQYHRLPLS,480 pM,6/6

A sequence measured in both rounds can read differently, since the two assays cover different ranges.
As a blank, each scFv also met three strains without target: over all light chain designs, 4% of these pairings were detected, typically at 430 nM and seldom below 38 nM.
The authors' rule: three or more of the six replicates give a measured affinity, fewer mean a poor binder.

Data: MIT Lincoln Laboratory AlphaSeq set, Li et al. 2023, doi:10.1038/s41467-023-39022-2, as distributed in FLAb.